# Assay: Distribution coefficients of ABE mixtures between DME and aqueous phase in agitated pressure vessel, HPLC
# Assay type: physicochemical
# Conditions: 30° C.
# Experimental: The compositions of the aqueous mixtures were based on concentrations typically produced in a cellulosic fermentation.
# Mixtures were charged to a pressure vessel and agitated to provide adequate contacting between the aqueous and solvent (DME) phases. Heat tape was used to control the temperature of the liquid that was measured by thermocouples. Pressure and temperature measurements were taken every five minutes. After temperature and pressure stabilization agitation was ceased and the liquid phases were allowed to fully settle.
# A mass balance was also performed on each component of the ABE and BE mixtures to determine a degree of accuracy of the results.
substance,measurement,value
n-butanol,distribution coefficient (slope of line fit),2.83

# Source: patent publication US9630894B2, “Energy efficient method and apparatus for the extraction of biomolecules from dilute aqueous solution” (DYNASEP INC., priority 2012, dated 2017)
